{"source": "IntAct's records for PubMed 17350572", "parents": {"B1": {"name": "Programmed cell death 6-interacting protein (Homo sapiens), Q8WUM4 (parent)", "chain": "MATFISVQLKKTSEVDLAKPLVKFIQQTYPSGGEEQAQYCRAAEELSKLRRAAVGRPLDKHEGALETLLRYYDQICSIEPKFPFSENQICLTFTWKDAFDKGSLFGGSVKLALASLGYEKSCVLFNCAALASQIAAEQNLDNDEGLKIAAKHYQFASGAFLHIKETVLSALSREPTVDISPDTVGTLSLIMLAQAQEVFFLKATRDKMKDAIIAKLANQAADYFGDAFKQCQYKDTLPKEVFPVLAAKHCIMQANAEYHQSILAKQQKKFGEEIARLQHAAELIKTVASRYDEYVNVKDFSDKINRALAAAKKDNDFIYHDRVPDLKDLDPIGKATLVKSTPVNVPISQKFTDLFEKMVPVSVQQSLAAYNQRKADLVNRSIAQMREATTLANGVLASLNLPAAIEDVSGDTVPQSILTKSRSVIEQGGIQTVDQLIKELPELLQRNREILDESLRLLDEEEATDNDLRAKFKERWQRTPSNELYKPLRAEGTNFRTVLDKAVQADGQVKECYQSHRDTIVLLCKPEPELNAAIPSANPAKTMQGSEVVNVLKSLLSNLDEVKKEREGLENDLKSVNFDMTSKFLTALAQDGVINEEALSVTELDRVYGGLTTKVQESLKKQEGLLKNIQVSHQEFSKMKQSNNEANLREEVLKNLATAYDNFVELVANLKEGTKFYNELTEILVRFQNKCSDIVFARKTERDELLKDLQQSIAREPSAPSIPTPAYQSSPAGGHAPTPPTPAPRTMPPTKPQPPARPPPPVLPANRAPSATAPSPVGAGTAAPAPSQTPGSAPPPQAQGPPYPTYPGYPGYCQMPMPMGYNPYAYGQYNMPYPPVYHQSPGQAPYPGPQQPSYPFPQPPQQSYYPQQ"}}}
{"variants_of": "B1", "conditions": "with sh3g1_human SH3GL1, Q99961"}
{"variant": "R757A;P758A", "effect of a mutation on the interaction": "decreasing interaction"}
